Assay: Induction of heme alkylation of Fe(II) heme assessed as adduct A472 absorbance change at completion of reaction at 10 uM in presence of 50% ACN-H2O with excess sodium dithionite under argon at 20 degC by spectrophotometry
Summary of the method: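 Reduced heme made from hemin (10 μM final) in 50% ACN-water (from 0.5 mM stock in 0.1 M NaOH) with excess sodium dithionite, argon-purged sealed cell, stirred at 20°C; peroxide added to 10 μM final. Product formation followed as A472, normalized to initial 418 nm heme absorbance; taken at completion (t = 30 s). n = 3.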

deltaA: 0.18
SMILES: CO[C@H]1O[C@@H]2O[C@@]3(C)CC[C@H]4[C@H](C)CC[C@@H]([C@H]1C)[C@@]24OO3

From ChEMBL document CHEMBL1255309, “Relationship between antimalarial activity and heme alkylation for spiro- and dispiro-1,2,4-trioxolane antimalarials” (Antimicrob Agents Chemother, 2008)
